Measured values published in ChEMBL document CHEMBL1149169 (J Med Chem, 2004).

Test system: Adenosine receptor A2a (Bos taurus)
Conditions: Striatum, Membrane

- 135: > 10 µM
Structure (SMILES): Cc1cc(O)c2ccc(N)nc2n1
